Measurements published in ChEMBL document CHEMBL6178016, “Design, Synthesis, and Biological Evaluation of New PDE4 Inhibitors for the Treatment of Pressure Ulcers” (J Med Chem, 2025).

Columns and labels:
[1] = Selectivity ratio of IC50 for PDE9A (unknown origin) to IC50 for PDE4D (unknown origin)
[2] = Selectivity ratio of IC50 for PDE11A (unknown origin) to IC50 for PDE4D (unknown origin)
[3] = Selectivity ratio of IC50 for PDE8A (unknown origin) to IC50 for PDE4D (unknown origin)
[4] = Selectivity ratio of IC50 for PDE10A (unknown origin) to IC50 for PDE4D (unknown origin)
[5] = Selectivity ratio of IC50 for PDE1A (unknown origin) to IC50 for PDE4D (unknown origin)
[6] = Selectivity ratio of IC50 for PDE3A (unknown origin) to IC50 for PDE4D (unknown origin)
[7] = Selectivity ratio of IC50 for PDE5A (unknown origin) to IC50 for PDE4D (unknown origin)
[8] = Selectivity ratio of IC50 for PDE6C (unknown origin) to IC50 for PDE4D (unknown origin)
[9] = Selectivity ratio of IC50 for PDE2A (unknown origin) to IC50 for PDE4D (unknown origin)
[10] = Selectivity ratio of IC50 for PDE7A (unknown origin) to IC50 for PDE4D (unknown origin)

Structure (SMILES): Cn1c(=O)c2c(ncn2CCC(=O)NNC(=O)c2cc3nccc(-c4ccc(OC(F)F)c(OCC5CC5)c4)n3n2)n(C)c1=O
- Ratio IC50 [1]: > 1700
- Ratio IC50 [2]: > 1700
- Ratio IC50 [3]: > 50
- Ratio IC50 [4]: > 30
- Ratio IC50 [5]: > 1700
- Ratio IC50 [6]: > 1700
- Ratio IC50 [7]: > 1700
- Ratio IC50 [8]: > 1700
- Ratio IC50 [9]: > 1700
- Ratio IC50 [10]: > 520
